Results published in ChEMBL document CHEMBL6109136, “Discovery of the 2,3-Dihydrobenzopyrane-4-one as a Potent FTO Inhibitor against Obesity-Related Metabolic Diseases” (J Med Chem, 2025).

Chains of the proteins cited; added tags and fusions are not shown.
UniProt Q9C0B1, whole entry, looked up: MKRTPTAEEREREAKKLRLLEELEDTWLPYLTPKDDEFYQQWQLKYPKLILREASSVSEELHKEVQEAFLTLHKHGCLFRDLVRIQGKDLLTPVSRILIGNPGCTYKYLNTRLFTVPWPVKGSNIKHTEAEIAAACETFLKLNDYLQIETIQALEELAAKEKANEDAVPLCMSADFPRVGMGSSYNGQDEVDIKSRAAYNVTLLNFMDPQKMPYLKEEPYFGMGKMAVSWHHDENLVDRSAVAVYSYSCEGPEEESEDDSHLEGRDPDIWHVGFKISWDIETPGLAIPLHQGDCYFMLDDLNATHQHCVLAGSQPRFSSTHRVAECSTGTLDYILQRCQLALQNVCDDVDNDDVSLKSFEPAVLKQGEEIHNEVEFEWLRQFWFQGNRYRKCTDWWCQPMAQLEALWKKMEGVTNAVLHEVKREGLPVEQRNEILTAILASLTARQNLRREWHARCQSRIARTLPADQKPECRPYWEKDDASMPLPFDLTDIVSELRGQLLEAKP

How the values were obtained:
HepG2 [1] = assay: Downregulation of G6PC expression in PA/OA-induced human HepG2 cells at 5 to 20 uM by Immunofluorescence staining based confocal microscopic analysis; format: functional, cell-based; settings: dose 5-20 µM
Mus musculus [2] = assay: Anti-obesity activity in high-fat diet fed DIO male C57BL/J mouse model assessed as downregulation of PCK1 expression level in liver at 40 to 160 mg/kg treated for 9 weeks by RT-qPCR analysis; format: functional, organism-based; settings: dose 40-160 mg/kg
Mus musculus [3] = assay: Anti-obesity activity in high-fat diet fed DIO male C57BL/J mouse model assessed as upregulation of UCP1 in adipose tissue at 40 to 160 mg/kg by Western blot analysis; format: functional, organism-based; settings: dose 40-160 mg/kg
Mus musculus [4] = assay: Anti-obesity activity in high-fat diet fed DIO male C57BL/J mouse model assessed as downregulation of FOXO1 level in liver at 40 to 160 mg/kg treated for 9 weeks by Western blot analysis; format: functional, organism-based; settings: dose 40-160 mg/kg
Mus musculus [5] = assay: Anti-obesity activity in high-fat diet fed DIO male C57BL/J mouse model assessed as upregulation of UCP1 expression in adipose tissue at 40 to 160 mg/kg by RT-qPCR analysis; format: functional, organism-based; settings: dose 40-160 mg/kg
Mus musculus [6] = organism: Mus musculus; assay: Anti-obesity activity in high-fat diet fed male DIO C57BL/J mouse model assessed as reduction in fat mass to fat mass ratio measured for 9 weeks; format: functional, organism-based; settings: dose 40-160 mg/kg
[7] = target: T1, Alpha-ketoglutarate-dependent dioxygenase FTO (Homo sapiens, UniProt Q9C0B1); assay: Induction of thermal stabilization of N-terminal His-tagged FTO (31 residues) in human HepG2 cells at 37 to 73 degreeC at 10 uM incubated for 6 hrs by CESTA; format: cell-based
HepG2 [8] = assay: Reversal of lipid accumulation in PA/OA-induced human HepG2 cells at 5 to 20 uM measured after 36 hrs by colorimetric assay; format: functional, cell-based; settings: dose 5-20 µM
HepG2 [9] = assay: Binding affinity to 3xflag-6His-tagged FTO R96A/Y106A/S229A/D233/E234A mutant in human HepG2 cells assessed as protection against pronase-induced proteolysis at 1 to 100 uM incubated for 1 hr by DARTS assay; format: cell-based; settings: dose 1-100 µM
HepG2 [10] = assay: Downregulation of PCK1 level in PA/OA-induced human HepG2 cells at 5 to 20 uM by Western blot analysis; format: functional, cell-based; settings: dose 5-20 µM
Mus musculus [11] = assay: Anti-obesity activity in high-fat diet fed male DIO C57BL/J mouse model assessed as reduction in fasting blood glucose level at 40 to 160 mg/kg treated for 3 weeks; format: functional, organism-based; settings: dose 40-160 mg/kg
HepG2 [12] = assay: Downregulation of PCK1 expression in PA/OA-induced human HepG2 cells at 5 to 20 uM by RT-qPCR analysis; format: functional, cell-based; settings: dose 5-20 µM
Mus musculus [13] = assay: Anti-obesity activity in high-fat diet fed male DIO C57BL/J mouse model assessed as reduction in triglycerides level in serum at 40 to 160 mg/kg treated for 9 weeks; format: functional, organism-based; settings: dose 40-160 mg/kg
Mus musculus [14] = assay: Anti-obesity activity in high-fat diet fed male DIO C57BL/J mouse model assessed as increase in glucose tolerance level at 40 to 160 mg/kg treated for 3 weeks; format: functional, organism-based; settings: dose 40-160 mg/kg
[15] = target: T1, Alpha-ketoglutarate-dependent dioxygenase FTO; assay: Inhibition of His-tagged FTO (unknown origin) assessed as demethylation of ALKBH5 at 10 to 80 uM; settings: dose 10-80 µM
HepG2 [16] = assay: Downregulation of G6PC level in PA/OA-induced human HepG2 cells at 5 to 20 uM by Western blot analysis; format: functional, cell-based; settings: dose 5-20 µM
HepG2 [17] = assay: Downregulation of G6PC expression in PA/OA-induced human HepG2 cells at 5 to 20 uM by RT-qPCR analysis; format: functional, cell-based; settings: dose 5-20 µM
Mus musculus [18] = assay: Anti-obesity activity in high-fat diet fed male DIO C57BL/J mouse model assessed as reduction in total cholesterol level in serum at 40 to 160 mg/kg treated for 9 weeks; format: functional, organism-based; settings: dose 40-160 mg/kg
HepG2 [19] = assay: Downregulation of FOXO1 level in PA/OA-induced human HepG2 cells at 5 to 20 uM by Western blot analysis; format: functional, cell-based; settings: dose 5-20 µM
Mus musculus [20] = assay: Anti-obesity activity in high-fat diet fed male DIO C57BL/J mouse model assessed as increase in body temperature around brown adipose tissue (BAT) at 40 to 160 mg/kg treated for 3 weeks; format: functional, organism-based; settings: dose 40-160 mg/kg
[21] = target: T1, Alpha-ketoglutarate-dependent dioxygenase FTO; assay: Binding affinity to 3xflag-6His-tagged wild-type FTO in human HepG2 cells assessed as protection against pronase-induced proteolysis at 1 to 100 uM incubated for 1 hr by DARTS assay; format: cell-based; settings: dose 1-100 µM
Mus musculus [22] = assay: Anti-obesity activity in high-fat diet fed male DIO C57BL/J mouse model assessed as reduction in low-density lipoprotein cholesterol level in serum at 40 to 160 mg/kg treated for 9 weeks; format: functional, organism-based; settings: dose 40-160 mg/kg
Mus musculus [23] = assay: Anti-obesity activity in high-fat diet fed male DIO C57BL/J mouse model assessed as increase in body temperature around inguinal white adipose tissue (iWAT) at 40 to 160 mg/kg treated for 3 weeks; format: functional, organism-based; settings: dose 40-160 mg/kg
HepG2 [24] = assay: Downregulation of FOXO1 expression in PA/OA-induced human HepG2 cells at 5 to 20 uM by RT-qPCR analysis; format: functional, cell-based; settings: dose 5-20 µM
Mus musculus [25] = assay: Anti-obesity activity in high-fat diet fed DIO male C57BL/J mouse model assessed as downregulation of PCK1 level in liver at 40 to 160 mg/kg treated for 9 weeks by Western blot analysis; format: functional, organism-based; settings: dose 40-160 mg/kg
HepG2 [26] = assay: Cytotoxicity against human HepG2 cells at 20 uM incubated for 48 hrs by Calcein/PI staining based analysis; format: functional, cell-based
HepG2 [27] = assay: Downregulation of FOXO1 expression in PA/OA-induced human HepG2 cells at 5 to 20 uM by Immunofluorescence staining based confocal microscopic analysis; format: functional, cell-based; settings: dose 5-20 µM
Mus musculus [28] = assay: Anti-obesity activity in high-fat diet fed DIO male C57BL/J mouse model assessed as downregulation of G6PC level in liver at 40 to 160 mg/kg treated for 9 weeks by Western blot analysis; format: functional, organism-based; settings: dose 40-160 mg/kg
Mus musculus [29] = organism: Mus musculus; assay: Anti-obesity activity in high-fat diet fed male DIO C57BL/J mouse model assessed as reduction in body weight treated for 9 weeks; format: functional, organism-based; settings: dose 40-160 mg/kg
Mus musculus [30] = assay: Anti-obesity activity in high-fat diet fed DIO male C57BL/J mouse model assessed as downregulation of G6PC expression level in liver at 40 to 160 mg/kg treated for 9 weeks by RT-qPCR analysis; format: functional, organism-based; settings: dose 40-160 mg/kg
Mus musculus [31] = assay: Anti-obesity activity in high-fat diet fed male DIO C57BL/J mouse model assessed as attenuation of hepatic steatosis at 40 to 160 mg/kg treated for 9 weeks by H and E staining analysis; format: functional, organism-based; settings: dose 40-160 mg/kg
Mus musculus [32] = assay: Anti-obesity activity in high-fat diet fed male DIO C57BL/J mouse model assessed as downregulation of FOXO1 expression level in liver at 40 to 160 mg/kg treated for 9 weeks by RT-qPCR analysis; format: functional, organism-based; settings: dose 40-160 mg/kg
HepG2 [33] = assay: Reversal of lipid accumulation in PA/OA-induced human HepG2 cells at 5 to 20 uM measured after 36 hrs by Oil Red O staining based analysis; format: functional, cell-based; settings: dose 5-20 µM
Mus musculus [34] = assay: Anti-obesity activity in high-fat diet fed DIO male C57BL/J mouse model assessed as reduction of adipocyte size at 40 to 160 mg/kg by H and E staining analysis; format: functional, organism-based; settings: dose 40-160 mg/kg

For `O=C1C[C@@H](c2ccc(O)c(O)c2)Oc2cc(O)cc(O)c21` [ERIODICTYOL], the Activity (HepG2 [1]) was “Active”, the Activity (Mus musculus [2]) was “Active” and the Activity (Mus musculus [3]) was “Active”. For the same compound, the Activity (Mus musculus [4]) was “Active”, the Activity (Mus musculus [5]) was “Active” and the Activity (Mus musculus [6]) was “Dose-dependent-effect”. For the same compound, the Activity [7] was “Active”, the Activity (HepG2 [8]) was “Active” and the Activity (HepG2 [9]) was “inactive”. For the same compound, the Activity (HepG2 [10]) was “Active”, the Activity (Mus musculus [11]) was “Active” and the Activity (HepG2 [12]) was “Active”. For the same compound, the Activity (Mus musculus [13]) was “Active”, the Activity (Mus musculus [14]) was “Active” and the Activity [15] was “Active”. The Activity (HepG2 [16]) was “Active”, the Activity (HepG2 [17]) was “Active” and the Activity (Mus musculus [18]) was “Active”. For the same compound, the Activity (HepG2 [19]) was “Active”, the Activity (Mus musculus [20]) was “Active” and the Activity [21] was “Active”. For the same compound, the Activity (Mus musculus [22]) was “Active”, the Activity (Mus musculus [23]) was “Active” and the Activity (HepG2 [24]) was “Active”. For the same compound, the Activity (Mus musculus [25]) was “Active”, the Activity (HepG2 [26]) was “inactive” and the Activity (HepG2 [27]) was “Active”. For the same compound, the Activity (Mus musculus [28]) was “Active”, the Activity (Mus musculus [29]) was “Dose-dependent-effect” and the Activity (Mus musculus [30]) was “Active”. The Activity (Mus musculus [31]) was “Active”, the Activity (Mus musculus [32]) was “Active” and the Activity (HepG2 [33]) was “Active”. For the same compound, the Activity (Mus musculus [34]) was “Active”.

Activity calls are given as the source filed them. The calls are words filed in the database; no cut-off is given here.
